# Source: patent publication US10415054B2, “Designer circuit controlling diet-induced obesity” (ETH ZURICH, priority 2013, dated 2019)
# Biological target: T1, CALC/RAMP receptor (Homo sapiens, UniProt O60896+P30988)
# T1 construct: host or cells: HEK-293
# T1 sequence (P30988 25-474): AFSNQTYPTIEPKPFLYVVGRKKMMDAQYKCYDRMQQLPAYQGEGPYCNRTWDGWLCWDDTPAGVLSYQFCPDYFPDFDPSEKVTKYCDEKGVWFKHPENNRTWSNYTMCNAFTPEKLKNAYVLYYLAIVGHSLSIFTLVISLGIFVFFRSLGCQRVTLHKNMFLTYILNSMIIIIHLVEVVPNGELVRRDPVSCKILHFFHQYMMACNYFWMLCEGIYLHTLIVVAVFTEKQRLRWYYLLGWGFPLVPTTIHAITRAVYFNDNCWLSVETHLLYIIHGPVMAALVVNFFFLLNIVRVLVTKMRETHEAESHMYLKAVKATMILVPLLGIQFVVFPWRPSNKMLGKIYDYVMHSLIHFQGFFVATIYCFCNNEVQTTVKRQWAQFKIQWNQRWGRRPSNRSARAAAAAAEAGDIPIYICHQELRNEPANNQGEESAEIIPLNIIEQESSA
# T1 sequence (O60896 24-148 partner): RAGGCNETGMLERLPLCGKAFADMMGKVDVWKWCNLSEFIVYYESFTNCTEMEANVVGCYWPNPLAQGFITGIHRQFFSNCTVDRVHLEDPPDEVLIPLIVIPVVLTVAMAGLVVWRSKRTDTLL
# Assay: Cell-based pramlintide activity assay (HEK-293 with pCALCR, pRAMP3, pCK53)
# Conditions: conditioned medium of pKR135/pKR146-transgenic HT-1080, SEAP reporter, 48 h, FIG. 9b
# Experimental: (b) Validation of functional pramlintide production. The culture supernatant of pKR135/pKR146-transgenic pramlintide-producing HT-1080 cultivated for 48 h in the presence of 100 μM linoleic acid was mixed at different percentages with DMEM and used to cultivate HEK-293 (co-)transfected with expression vectors encoding the pramlintide-specific receptors pCALCR, pRAMP3 and the corresponding reporter unit (pCK53; PCRE-SEAP-pA). Pramlintide-triggered SEAP expression was profiled after 48 h. medPcond (%)=pramlintide-containing conditioned medium, % pramlintide.
# In vitro activity of pramlintide was measured by (co-)transfecting HT-1080 with pKR135/pKR146 or pJWS17 (6 μg DNA, 800,000 cells, 10 cm Petri dish). […] Alternatively, pramlintide was quantified using the human amylin EIA ELISA kit (Phoenix Pharmaceuticals, Burlingame, USA) and pure pramlintide as standard (Feldan, Quebec, Canada). For quantification of pramlintide in mouse serum samples, 96-well plates were coated with 5 μg/mL (100 μL/well) rabbit polyclonal anti-human amylin (Amylin H-50, Santa Cruz Biotechnology, Santa Cruz, USA; cat. no. sc-20936, lot. no. 10303) in dilution buffer (PBS, 0.5% BSA, 0.01% Tween80, pH7.4) at 4° C. overnight. […] Reactions were stopped by addition of 2 M sulfuric acid (100 μL/well) and pramlintide was quantified at 450 nm using an Envision plate reader.
smiles,measurement,value
CC[C@H](C)[C@H](NC(=O)[C@@H]1CCCN1C(=O)CNC(=O)[C@H](Cc1ccccc1)NC(=O)[C@H](CC(N)=O)NC(=O)[C@H](CC(N)=O)NC(=O)[C@H](CO)NC(=O)[C@H](CO)NC(=O)[C@H](Cc1c[nH]cn1)NC(=O)[C@@H](NC(=O)[C@H](CC(C)C)NC(=O)[C@H](Cc1ccccc1)NC(=O)[C@H](CC(N)=O)NC(=O)[C@H](C)NC(=O)[C@H](CC(C)C)NC(=O)[C@H](CCCNC(=N)N)NC(=O)[C@H](CCC(N)=O)NC(=O)[C@@H](NC(=O)[C@H](C)NC(=O)[C@@H]1CSSC[C@H](NC(=O)[C@@H](N)CCCCN)C(=O)N[C@@H](CC(N)=O)C(=O)N[C@@H]([C@@H](C)O)C(=O)N[C@@H](C)C(=O)N[C@@H]([C@@H](C)O)C(=O)N1)[C@@H](C)O)C(C)C)C(=O)N[C@@H](CC(C)C)C(=O)N1CCC[C@H]1C(=O)N1CCC[C@H]1C(=O)N[C@H](C(=O)N[C@@H](CC(N)=O)C(=O)N[C@H](C(=O)NCC(=O)N[C@@H](CO)C(=O)N[C@@H](CC(N)=O)C(=O)N[C@H](C(=O)N[C@@H](Cc1ccc(O)cc1)C(N)=O)[C@@H](C)O)C(C)C)[C@@H](C)O [pramlintide],capacity to activate target receptor and signaling cascades,activate its target CALC/RAMP receptor
